# Yeast mating assay 1: variants of the scFv Ab-14

The measurements come from Engelhart et al. 2022 (doi:10.1038/s41597-022-01779-4) through the FLAb antibody collection.

Binding partner: SARS-CoV-2 spike HR2 peptide, sequence PDVDLGDISGINAS.

Ab-14 is the parent antibody, in scFv form: VH, then a (GGGGS)3 linker, then VL. The heavy chain is unchanged in all variants.
VH: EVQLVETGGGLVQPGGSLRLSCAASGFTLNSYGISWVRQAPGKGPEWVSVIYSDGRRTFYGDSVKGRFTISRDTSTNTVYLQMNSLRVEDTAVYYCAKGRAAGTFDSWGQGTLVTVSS
VL: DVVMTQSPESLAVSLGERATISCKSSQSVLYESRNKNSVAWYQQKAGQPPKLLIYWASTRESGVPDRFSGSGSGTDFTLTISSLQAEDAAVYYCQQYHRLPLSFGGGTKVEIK

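Library AAYL50 holds single substitutions and randomly drawn double and triple substitutions in the CDRs. AlphaSeq pools MATa yeast showing the antibodies with MATalpha yeast showing the peptide. Pairs that bind mate more often; barcode pairs of the diploids are counted by sequencing. A regression on co-assayed BCL2-family reference pairs converts the normalised counts of each replicate to an apparent Kd. There are three technical replicates.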

The parent's light chain CDRs are KSSQSVLYESRNKNSVA, WASTRES, QQYHRLPLS; each variant's own CDRs replace them letter for letter. Values are log10 of the apparent Kd in nM; lower means stronger binding. The mean shown is taken over the replicates in which the pair was detected. Where no diploid with the target was found in that replicate, the entry reads "nd": below detection, most likely a poor binder, though not proof of it. Three control strains display no target. For library AAYL50, 18% of the pairings with them gave a signal, with a median of 4.19 and one signal in twenty below 2.99, so weak values seen in few replicates may be background. Also given: how often the same scFv was detected with the empty control strains, with their mean in brackets. In this assay the parent's reference entry averaged 0.65; its copy inside this library read 1.68.

| # | CDR-L1 | CDR-L2 | CDR-L3 | log10 Kd (nM) by replicate | log10 Kd (nM), mean | empty controls |
|---|---|---|---|---|---|---|
| 1 | KSWQSFLYESRNKNFVA | WASTRES | QQYHRLPLS | 5.39 nd 4.84 | 5.12 | 2 of 9 (4.15) |
| 2 | KSSQSVLYESRPKNSVA | WASTRES | QQCHRLPWS | nd nd nd | nd | 1 of 9 (2.67) |
| 3 | KSSQSVLYESRNRNSVA | WASTPES | QQYQRLPLS | 2.65 2.53 2.78 | 2.65 | 3 of 9 (4.43) |
| 4 | KTSQSVLYECRNKNSVA | WASTRES | QQYHRLPMS | 3.51 3.08 4.01 | 3.53 | 1 of 9 (4.02) |
| 5 | KSSQSVLYESRNKNSVA | WASTRES | QQTHKLPGS | nd nd nd | nd | 0 of 9 |
| 6 | KSSQSVAYESRNKESVA | WASTRLS | QQYHRLPLS | 1.56 1.43 1.48 | 1.49 | 4 of 9 (4.52) |
| 7 | KSSQCVLYEYRNKNSVA | WASTRES | QQYHRLPLR | nd nd 4.14 | 4.14 | 2 of 9 (3.80) |
| 8 | KSSQSVLYESRNKNSVA | WASTRED | QQWHRLPLS | 3.07 3.07 3.22 | 3.12 | 0 of 9 |
| 9 | KSSQSVLYESRNGNSVA | WAHTRES | QQYHRLPNS | 1.33 1.26 1.31 | 1.30 | 0 of 9 |
| 10 | KSSQSPLYESKNKNSVA | WISTRES | QQYHRLPLS | 3.29 nd nd | 3.29 | 0 of 9 |
| 11 | KSSQSVLYESRNKNSVA | WASTRES | IQPHMLPLS | 0.95 1.14 1.19 | 1.09 | 3 of 9 (4.43) |
| 12 | KSWQSVLYESHNTNSVA | WASTRES | QQYHRLPLS | 1.95 1.71 2.21 | 1.96 | 0 of 9 |
| 13 | KSSQSVLYESRNKNHVA | WASTRES | QQYHRLPHS | nd nd nd | nd | 0 of 9 |
| 14 | KSSQSVLLESRNKNSVA | WASTREA | QQYHRVPLS | 1.38 1.44 1.47 | 1.43 | 3 of 9 (4.39) |
| 15 | KSSQSVLYESRNKNSVA | WASTRQS | QQYHRLPLS | 1.68 2.45 2.13 | 2.09 | 2 of 9 (4.27) |
| 16 | KSVQSVLYESRAKNSVA | WPSTRES | QQYHRLPLS | 5.20 nd nd | 5.20 | 5 of 9 (4.40) |
| 17 | KESQSVLYEQRNKNSVA | WASTRES | GQYHRLPLS | nd 4.35 nd | 4.35 | 1 of 9 (4.44) |
| 18 | KSSQSVLYESRNKNSVA | WASVREN | QQYHRLPGS | 0.77 0.80 0.90 | 0.82 | 2 of 9 (4.66) |
| 19 | KSSQFVLYESINKNSVA | WASTRES | QQYHRLPLS | nd nd nd | nd | 1 of 9 (4.22) |
| 20 | KSSQSVLYESRNKNSVA | WHSFRES | QQYHRQPLS | nd nd nd | nd | 1 of 9 (3.47) |
| 21 | KSSQSVLYESLNKNSVA | WASTRES | HDYHRLPLS | 2.38 2.16 2.78 | 2.44 | 3 of 9 (4.84) |
| 22 | KSSRSVLYESRNKNSVA | WASTRES | QFYHRLPTS | nd nd 5.98 | 5.98 | 0 of 9 |
| 23 | KSSQSVLYESRNKNSVA | WFSTRES | QNYHRLPLS | nd nd nd | nd | 3 of 9 (3.73) |
| 24 | KSSQSVLTEKRNKNSVA | WCSTRES | QQYHRLPLS | nd nd nd | nd | 0 of 9 |
| 25 | KSSQSVSEESRNKNSVA | WASDRES | QQYHRLPLS | 3.94 3.63 nd | 3.79 | 1 of 9 (4.06) |
| 26 | KSSQSVLYESRNKNSVA | WASTRES | QYCHRCPLS | 3.45 3.42 nd | 3.43 | 2 of 9 (4.50) |
| 27 | KSSQSVLYEIRNKNSVA | WASTREG | QQYHRLPLS | nd nd 3.47 | 3.47 | 1 of 9 (3.80) |
| 28 | KSSQSVGYESRNKNSVA | WASTRES | QQVYRLPLS | nd nd 6.18 | 6.18 | 4 of 9 (4.29) |
| 29 | KSSRNVLYESRNKNSVA | WASTMES | QQYHRLPLS | nd nd nd | nd | 0 of 9 |
| 30 | KSSQSVLYESRNKNDVA | WASTRES | QQMHILPLS | nd nd 3.21 | 3.21 | 0 of 9 |
| 31 | KSSQSVLYESRNKNSES | WASTRES | QQYSRLPLS | nd nd nd | nd | 0 of 9 |
| 32 | KSSQSVLYEPRNKNSVA | TAMTRES | QQYHRLPLS | 1.70 1.95 1.93 | 1.86 | 3 of 9 (4.25) |
| 33 | KSSQSVLYESRNKYSVA | WASTREW | QQYHRLPLS | 0.83 1.28 1.41 | 1.17 | 0 of 9 |
| 34 | KSSQAVLQESRNKNSVA | WASTRES | QQYHRDPLS | 1.97 1.70 1.80 | 1.83 | 1 of 9 (4.38) |
| 35 | KSSPSVLYESRIKNSVA | WASTRES | QGYHRLPLS | 0.52 1.01 0.76 | 0.76 | 0 of 9 |

A selection of 4 entries from above:

CDR-L1	CDR-L2	CDR-L3	log10 Kd (nM) by replicate	log10 Kd (nM), mean	empty controls
KSSQSVLYESRPKNSVA	WASTRES	QQCHRLPWS	nd nd nd	nd	1 of 9 (2.67)
KSSQFVLYESINKNSVA	WASTRES	QQYHRLPLS	nd nd nd	nd	1 of 9 (4.22)
KSSQSVLYESRNKNSVA	WASTRED	QQWHRLPLS	3.07 3.07 3.22	3.12	0 of 9
KESQSVLYEQRNKNSVA	WASTRES	GQYHRLPLS	nd 4.35 nd	4.35	1 of 9 (4.44)